{"source": "patent US20020142945A1", "about": "“Immunomodulatory methods using carbohydrate antigens” (President and Fellows of Harvard College, priority 1998, published 2002)", "key": {"serum total IgE [1]": {"tested_on": "serum total IgE", "experiment": "Serum total IgE by sandwich ELISA following immunization of mice", "format": "in vivo", "excerpt": "Young adult (7-9 weeks old) CBA/J, BALB/C, and C57BL/6 strain female mice were purchased from Harlan (Indianapolis, Ind.). Female CBA/CaJ xid and age-matched control female CBA/CaJ mice were purchased from The Jackson Laboratory (Bar Harbor, ME). IL-4 deficient BALB/C mice were generated as described ( ). This deficient mice were bred and maintained at Harvard School of Public Health according to the guidelines set forth by the Harvard Medical Area Research Committee.\n(§1) Multivalent LNnT or Lewis^γ were conjugated with HSA (LNnT-HSA and Le^y-HSA) by Accurate Chemical and Scientific Corporation (NY). In both neoglycoproteins, 13 molecules of sugar conjugated to 1 HSA molecule. As controls, HSA (Sigma Chemical Co., Mo.), HSA adsorbed to alum (Intergen Company, NY; HSA-alum), or Dulbecco's PBS (Gibco BRL, NY) were prepared for immunization. Groups of four to six mice were immunized intraperitoneally or subcutaneously with Ags (10 μg of HSA) or saline. First and second boosting immunization were performed in the same fashion 2 and 3 weeks later, respectively. Protein concentration was determined by bicinchoninic acid (BCA) assay (Pierce, Ill.).\n(§2) Immunized mice were bled from the tail 10, 6, and 5 days following primary, first, and second boosting immunization, respectively. Total and HSA-specific IgE were determined by sandwich ELISA. In brief, ELISA plates (Corning Inc., NY) were coated overnight at 4° C. with 100 μl of 5 μg/ml rat anti-mouse IgE mAb (Biosource, CA) in carbonate-bicarbonate buffer, pH 9.6. After washing four times with PBS containing 0.05% Tween20 (PBS-T), plates were blocked with 200 μl PBS containing 10% FCS and 0.3% Tween20 for 2 hrs at 37° C. After washing as above, 100 μl samples of serially-diluted serum or standard mouse IgEmAb (Pharmingen, Calif.) were added in duplicate wells and incubated for 2 hrs at 37° C. Thereafter, 100 μl biotinylated anti-mouse IgEmAb (0.5 μg/ml, Pharmingen) or biotinylated HSA (1 μg/ml) were added to detect total IgE and HSA-specific IgE, respectively. After 2 hrs incubation at 37° C., plates were washed and 100 μl peroxidase-conjugated streptavidin (Sigma) diluted 1/1000 was added to each well and incubated for 1 hr at 37° C. Finally plates were washed eight times, the reactions were developed by addition of tetramethyl-benzidine substrate (Kirkegaard and Perry Laboratories, Gaithersburg, Md.) and stopped by addition of phosphoric acid (0.4M). The absorbance was measured at 450 nm in UVMax automated plate reader (Molecular Devices Corp., Menlo Park, Calif.). For biotinylation, HSA (2 mg/ml) in sodium bicarbonate buffer pH 8.5 was incubated with biotin (long arm) N-hydroxy succumide ester (Vector Lab., CA) for 2 hrs at room temperature, stopped the reaction by addition of 5 μl ethanolamine, and dialyzed overnight with PBS/0.05% sodium azide."}, "Ag-specific IgE and IgG": {"tested_on": "Ag-specific IgE and IgG", "experiment": "Antigen-specific serum IgE and IgG by ELISA following immunization", "format": "in vivo, mice", "description": "as §1, §2\nAg-specific IgG ELISA were determined. […] Finally the absorbance at 450 nm was measured using a UVMax automatic microplate reader. Results were expressed as endpoint titers where the endpoint was determined as the final serum dilution which yields a higher absorbance than twice of the background absorbance. Optimum dilutions of anti-mouse IgG mAb-horseradish peroxidase-labeled conjugates were determined to be 1/1000. […]"}, "serum IgG isotypes": {"tested_on": "serum IgG isotypes", "experiment": "Serum total IgG isotypes by ELISA following IP immunization", "format": "in vivo, mice", "description": "as §1\nSerum total IgG isotypes were also determined by ELISA. Plates were coated with 100 μl of 2 μg/ml rat anti-mouse IgG1, IgG2a, IgG2b, and IgG3 mAb (Pharmingen) overnight at 4° C. After washing and blocking described as above, 100 μl samples of serially-diluted serum or standard mouse IgG isotypes (Pharmigen) were added in duplicate wells and incubated for 2 hrs at 37° C. Thereafter, 100 μl peroxidase-conjugated polyclonal goat anti-mouse Ig (Pharmingen) diluted in 1/1000 were added and incubated for 1 hr at 37° C. After the washing, the reactions were developed and stopped as described above, and the absorbance was measured at 450 nm."}, "splenocytes": {"tested_on": "splenocytes", "experiment": "Proliferative responses of splenocytes (3H thymidine)", "format": "cell-based, mice", "description": "Groups of mice were killed by carbon dioxide 5 days following second boosting immunization. Spleens were removed aseptically and proliferation assays were performed as described previously (Velupillai, P. et al. (1997) J. Immunol. vol. 158 pp. 338-344). In brief, cell suspensions were prepared in RPMI 1640 supplemented with 10% FCS (Gibco), 2 mM L-glutamine, 5×10^−5 M 2-mercaptoethanol, 100 Unit/ml penicillin, and 100 μg/ml streptomycin (Sigma). Red blood cells were removed by incubation in Boyle's solution, and 2.5×10^6 cells per ml were added to 96-well flat-bottom tissue culture plates (Corning) in triplicate for 72 hrs at 37° C., 5% C02 in air, with 2 μg/ml ConA (Vector), 10 μg/ml HSA or LNnT-HSA. For the final 8 hrs, cells were incubated with 1 μCi ^3H thymidine (Amersham Life Science Inc., IL) and then harvested onto filter paper for scintillation counting."}, "serum total IgE [2]": {"tested_on": "serum total IgE", "settings": "intranasal sensitization; cited from earlier work"}, "[3]": {"settings": "BALB/C mice, following second IP immunization"}, "[4]": {"settings": "BALB/C mice IP immunized, vs saline or HSA alone"}}, "note": "Read-outs that look alike come from different tables or passages of the source.", "data": [{"substance": "LNnT-HSA: Multivalent lacto-N-neotetraose conjugated with human serum albumin; 13 molecules of sugar per HSA molecule", "values": [{"measurement": "elevation of serum total IgE", "setting": "serum total IgE [1]; BALB/C mice, SC immunization, even following the boost", "result": "not seen"}, {"measurement": "serum total IgE", "setting": "serum total IgE [1]; BALB/C mice, following first boosting IP immunization, vs saline, HSA, Le^y-HSA, HSA-Alum", "result": "significantly higher"}, {"measurement": "elevation of serum IgE", "setting": "serum total IgE [1]; BALB/C mice, following primary inoculation", "result": "not seen"}, {"measurement": "duration of high elevation of serum IgE", "setting": "serum total IgE [1]; [3]", "result": "at least 8 weeks"}, {"measurement": "serum IgE", "setting": "serum total IgE [1]; [3]", "result": "significantly elevated"}, {"measurement": "serum IgE", "setting": "serum total IgE [1]; C57BL/6 mice, following first IP immunization", "result": "did not show the increase"}, {"measurement": "serum IgE", "setting": "serum total IgE [1]; C57BL/6 mice, following second IP immunization", "result": "induced the increase"}, {"measurement": "serum IgE", "setting": "serum total IgE [1]; CBA/CaJ xid mice vs control CBA/CaJ mice, IP immunization", "result": "significantly lower"}, {"measurement": "serum IgE", "setting": "serum total IgE [1]; CBA/CaJ xid mice, IP immunization, vs saline or HSA", "result": "significantly higher"}, {"measurement": "serum IgE", "setting": "serum total IgE [1]; CBA/J mice, following first boosting IP immunization, vs control groups", "result": "significant elevation"}, {"measurement": "polyclonal IgE production", "setting": "serum total IgE [1]; IL-4 deficient mice, repeated IP immunization", "result": "did not induce polyclonal IgE production"}, {"measurement": "time that high levels of non-specific IgE persist", "setting": "serum total IgE [1]; longest time point in the study", "result": "at least 70 days"}, {"measurement": "IgG or IgE specific for LNnT-HSA", "setting": "Ag-specific IgE and IgG; BALB/C mice IP immunized, compared with the controls", "result": "did not produce significant amounts"}, {"measurement": "HSA-specific IgE and IgG in sera", "setting": "Ag-specific IgE and IgG; BALB/C mice immunized IP", "result": "not detected"}, {"measurement": "IgE or IgG against HSA", "setting": "Ag-specific IgE and IgG; CBA/J and C57BL/6 mice", "result": "did not elicit"}, {"measurement": "specific IgE signal against Gal (β1-4) GlcNAc and Gal (β1-4) Glc", "setting": "Ag-specific IgE and IgG; biotinylated sugars instead of biotinylated HSA in specific IgE ELISA", "result": "not detected"}, {"measurement": "serum IgG1", "setting": "serum IgG isotypes; [4]", "result": "significantly increased"}, {"measurement": "serum amount of other IgG isotypes", "setting": "serum IgG isotypes; [4]", "result": "not significantly different"}, {"measurement": "serum IgG3", "setting": "serum IgG isotypes; mice IP immunized, compared with controls", "result": "same amount"}, {"measurement": "proliferative response of splenocytes with restimulation of LNnT-HSA", "setting": "splenocytes; BALB/C mice immunized IP", "result": "significantly enhanced"}, {"measurement": "proliferative response of splenocytes without restimulation", "setting": "splenocytes; BALB/C mice immunized IP, compared to control mice", "result": "significant responses"}, {"measurement": "proliferative response of splenocytes in ConA stimulation", "setting": "splenocytes; BALB/C mice immunized IP, vs controls", "result": "significantly more"}, {"measurement": "in vitro proliferative responses to LNnT-HSA", "setting": "splenocytes; splenocytes of mice IP immunized with HSA or saline, 10 μg/ml, compared to HSA or unrestimulation", "result": "moderate but significant"}, {"measurement": "elevation of serum IgE", "setting": "serum total IgE [2]", "result": "does not induce"}]}]}
